# This is one part of the list.
# B1: PARIS_ID2 (structured_RNA)
# RNA: GGGAAGGCAAGCGUUUUAUCAAUCCAGCGGUGUACGAAGUUUCAGCGGGUCCAAGACAUAUAAUCAUGUAUAAUUUUGUCAAGGUAUAAUUUUUUAAAUUGCUUUUGUCAUGUGUCUGCUGGUGAUGCCCGCUGAAGCUUCGUGCAC
# B2: hsa-mir-4476 (structured_RNA)
# RNA: GGGAACUCGUUGGGCCGAAAACCUUUUAGGUGUACGAAGUUUCAGCCCCAGCCUUCCAGAGUUGGUGCCAGGGCUGAAGCUUCGUGCAC
# B3: hsa-mir-744 (structured_RNA)
# RNA: GGGACUAUUAGGGUAACCAUCGGCACGUGGUGUACGAAGUUUCAGCACAGCAGUCUUACUGAAGGUUUCCUGGAAACCACGCACAUGCUGUGCUGAAGCUUCGUGCAC
# B4: hsa-mir-6735 (structured_RNA)
# RNA: GGGACUGCAACAACGGGAACAUGUGGUCGGUGUACGAAGUUUCAGCAUCUGAGGUGACUGGCACAGAAGACUCAGGGCUGAAGCUUCGUGCAC
# B5: hsa-mir-5197 (structured_RNA)
# RNA: GGGAAAGCUGGUAGGCCGAACUCGCAAAGGUGUACGAAGUUUCAGCUCUUGAAUUUUUGCCAGUUCAAGAGCUGAAGCUUCGUGCAC
# B6: hsa-mir-6864 (structured_RNA)
# RNA: GGGAAACUCGGCGUGUGAACUCCAGAAUGGUGUACGAAGUUUCAGCGAUAUGCCAUUAUGUGGGUCAUGAGGUGGUGAGCUGAAGCUUCGUGCAC
# B7: hsa-mir-4749 (structured_RNA)
# RNA: GGGAACAGCUAUCUGAGACUAAUACGGUGGUGUACGAAGUUUCAGCGGCAUCUAGGCUGUGCACAGUGACGCCGCUGAAGCUUCGUGCAC
# B8: hsa-mir-4252 (structured_RNA)
# RNA: GGGAAAAGGGGUAUUAGAAGGGCGCUUAGGUGUACGAAGUUUCAGCGGCCAUCUGGCCGCUGAAGCUUCGUGCAC
# B9: hsa-mir-4310 (structured_RNA)
# RNA: GGGACCGAACCGCUGUUGACGAAACCAUGGUGUACGAAGUUUCAGCCUGCAGAACAUUGCAGGCUGAAGCUUCGUGCAC
# B10: hsa-mir-1238 (structured_RNA)
# RNA: GGGAGAGAUAACAGAAAGAGUGCCCAAGGGUGUACGAAGUUUCAGCUGUGGUUGGGGCCAUGGCGGGUGGGCAGCCCAGCCUCUGAGCCUUCCUGCUGAAGCUUCGUGCAC
# B11: hsa-mir-6506 (structured_RNA)
# RNA: GGGACCAGACGUGGAUGAAAUGGCCUUCGGUGUACGAAGUUUCAGCAUGGUGUUUGUGAGUUGAUUGACAUCGUGCUGAAGCUUCGUGCAC
# B12: hsa-mir-1301 (structured_RNA)
# RNA: GGGAGACUUCCCGAGAGGGUCAACCUCUGGUGUACGAAGUUUCAGCGCAGCACUGUGCUGGGGAUGUUGCGCUGAAGCUUCGUGCAC
# B13: hsa-mir-1276 (structured_RNA)
# RNA: GGGACCUUGGUAUGGCAACUAUAGUACGGGUGUACGAAGUUUCAGCGACACCUGGAUUCAGAGAACAUGUCGCUGAAGCUUCGUGCAC
# B14: hsa-mir-3155b (structured_RNA)
# RNA: GGGAGUGUGGAUCGCGGCUUUCAACGUAGGUGUACGAAGUUUCAGCCUGGGAAGGGAGCUGUCCGGCUCCCCAGGCUGAAGCUUCGUGCAC
# B15: hsa-mir-942 (structured_RNA)
# RNA: GGGAAACUCACUGGAGAGGUACCGACAGGGUGUACGAAGUUUCAGCUGUGUGUACUCACAGCCCCUCACACAGCUGAAGCUUCGUGCAC
# B16: hsa-mir-6874 (structured_RNA)
# RNA: GGGACUAAAUGGGAACGGGAACCUUAUCGGUGUACGAAGUUUCAGCUCAGGCUUUAAUGUUUGAAGUAAUGUCAGUGCUGAAGCUUCGUGCAC
# B17: hsa-mir-30a (structured_RNA)
# RNA: GGGAAAGGGGCGCCAUAAAAGUCAAGCUGGUGUACGAAGUUUCAGCGAAGCUGUGAAGCCACAGAUGGGCUUUGCUGAAGCUUCGUGCAC
# B18: hsa-mir-3132 (structured_RNA)
# RNA: GGGAACGAUGUUGAGUAUAGAGUUACCCGGUGUACGAAGUUUCAGCAGGACGGUGCGCCUUGUUUCCCGCUGAAGCUUCGUGCAC
# B19: hsa-mir-3680-2_3680-1 (structured_RNA)
# RNA: GGGAAGGACUUUAGCAAGAGUACUCCACGGUGUACGAAGUUUCAGCUGCAAAUGCAAAGUUGGCUUUUGCAGCUGAAGCUUCGUGCAC
# B20: hsa-mir-4488 (structured_RNA)
# RNA: GGGAAAUUUGGAGCACCCUAAACCGGCCGGUGUACGAAGUUUCAGCGGCGCUGGGACCCCACUAGGGUGGCGCCGCUGAAGCUUCGUGCAC
# B21: hsa-mir-4485 (structured_RNA)
# RNA: GGGAACCUUCCUGUAAAGUUAGUAGGCAGGUGUACGAAGUUUCAGCCAGUGACAUGCGUUUAACGCUGAAGCUUCGUGCAC
# B22: hsa-mir-4482 (structured_RNA)
# RNA: GGGACGUAUAUGGCCAGUUGGGGAACGUGGUGUACGAAGUUUCAGCGAAAUGUGUGGAAGAUGGCAUUUCGCUGAAGCUUCGUGCAC
# B23: hsa-mir-101-1 (structured_RNA)
# RNA: GGGAAAAGUUGUACGCCUGCGCCCUGUAGGUGUACGAAGUUUCAGCGAUGCUGUCUAUUCUAAAGGUACGCUGAAGCUUCGUGCAC
# Target: U1A (Homo sapiens, UniProt P09012)
# Assay: FOREST: bead pull-down of RNA structure library v1, barcode microarray; U1A/LIN28A: 20 mM HEPES pH 7.5, 80 mM KCl, 20 mM NaCl, 10% glycerol, 2 mM DTT, 0.1 ug/uL BSA, 4 C; BG4/CIRBP/DHX36: 10 mM Tris-HCl pH 7.5, 100 mM KCl (or LiCl),; high values mean tight binding
row,Binder,binding signal
1,B1,0.122 z-score
2,B2,0.122 z-score
3,B3,3.42 z-score
4,B4,1.79 z-score
5,B5,0.121 z-score
6,B6,0.12 z-score
7,B7,0.119 z-score
8,B8,0.117 z-score
9,B9,0.116 z-score
10,B10,0.116 z-score
11,B11,0.116 z-score
12,B12,0.116 z-score
13,B13,0.114 z-score
14,B14,0.112 z-score
15,B15,1.74 z-score
16,B16,0.111 z-score
17,B17,0.109 z-score
18,B18,0.104 z-score
19,B19,0.103 z-score
20,B20,0.0999 z-score
21,B21,0.0961 z-score
22,B22,0.0945 z-score
23,B23,0.0942 z-score

# Target: T1, LIN28A (human?, UniProt Q9H9Z2 1-209)
# T1 sequence: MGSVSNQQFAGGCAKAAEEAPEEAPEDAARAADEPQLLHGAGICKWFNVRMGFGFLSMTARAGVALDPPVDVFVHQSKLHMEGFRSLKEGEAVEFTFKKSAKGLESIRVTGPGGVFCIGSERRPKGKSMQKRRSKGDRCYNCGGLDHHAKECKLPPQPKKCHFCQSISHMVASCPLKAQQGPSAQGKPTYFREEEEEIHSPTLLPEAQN
# Assay: as above
row,Binder,binding signal
1,B1,0.784 z-score
2,B2,-1.31 z-score
3,B3,0.621 z-score
4,B4,0.482 z-score
5,B5,-0.769 z-score
6,B6,0.268 z-score
7,B7,-0.547 z-score
8,B8,-0.169 z-score
9,B9,-0.489 z-score
10,B10,0.519 z-score
11,B11,0.276 z-score
12,B12,0.285 z-score
13,B13,-0.138 z-score
14,B14,-0.309 z-score
15,B15,-0.943 z-score
16,B16,-0.201 z-score
17,B17,-0.388 z-score
18,B18,0.395 z-score
19,B19,0.184 z-score
20,B20,-0.271 z-score
21,B21,0.998 z-score
22,B22,0.294 z-score
23,B23,0.137 z-score

# Target: T2, CIRBP (Homo sapiens, UniProt Q14011 1-172)
# T2 sequence: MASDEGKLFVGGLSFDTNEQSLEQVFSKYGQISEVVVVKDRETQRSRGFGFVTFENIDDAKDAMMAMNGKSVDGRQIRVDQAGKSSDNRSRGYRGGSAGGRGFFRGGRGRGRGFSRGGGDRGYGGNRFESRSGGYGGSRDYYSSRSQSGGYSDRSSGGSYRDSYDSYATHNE
# Assay: as above
row,Binder,binding signal
1,B1,-1.81 z-score
2,B2,-0.112 z-score
3,B3,0.628 z-score
4,B4,0.911 z-score
5,B5,0.518 z-score
6,B6,0.315 z-score
7,B7,-0.5 z-score
8,B8,0.401 z-score
9,B9,0.527 z-score
10,B10,0.335 z-score
11,B11,-0.544 z-score
12,B12,-2.18 z-score
13,B13,-0.391 z-score
14,B14,-0.56 z-score
15,B15,-0.484 z-score
16,B16,-0.5 z-score
17,B17,0.0952 z-score
18,B18,0.436 z-score
19,B19,0.165 z-score
20,B20,0.356 z-score
21,B21,0.0306 z-score
22,B22,-0.428 z-score
23,B23,0.558 z-score

# Target: T3, DHX36 (Homo sapiens, UniProt Q9H2U1 1-1008)
# T3 sequence: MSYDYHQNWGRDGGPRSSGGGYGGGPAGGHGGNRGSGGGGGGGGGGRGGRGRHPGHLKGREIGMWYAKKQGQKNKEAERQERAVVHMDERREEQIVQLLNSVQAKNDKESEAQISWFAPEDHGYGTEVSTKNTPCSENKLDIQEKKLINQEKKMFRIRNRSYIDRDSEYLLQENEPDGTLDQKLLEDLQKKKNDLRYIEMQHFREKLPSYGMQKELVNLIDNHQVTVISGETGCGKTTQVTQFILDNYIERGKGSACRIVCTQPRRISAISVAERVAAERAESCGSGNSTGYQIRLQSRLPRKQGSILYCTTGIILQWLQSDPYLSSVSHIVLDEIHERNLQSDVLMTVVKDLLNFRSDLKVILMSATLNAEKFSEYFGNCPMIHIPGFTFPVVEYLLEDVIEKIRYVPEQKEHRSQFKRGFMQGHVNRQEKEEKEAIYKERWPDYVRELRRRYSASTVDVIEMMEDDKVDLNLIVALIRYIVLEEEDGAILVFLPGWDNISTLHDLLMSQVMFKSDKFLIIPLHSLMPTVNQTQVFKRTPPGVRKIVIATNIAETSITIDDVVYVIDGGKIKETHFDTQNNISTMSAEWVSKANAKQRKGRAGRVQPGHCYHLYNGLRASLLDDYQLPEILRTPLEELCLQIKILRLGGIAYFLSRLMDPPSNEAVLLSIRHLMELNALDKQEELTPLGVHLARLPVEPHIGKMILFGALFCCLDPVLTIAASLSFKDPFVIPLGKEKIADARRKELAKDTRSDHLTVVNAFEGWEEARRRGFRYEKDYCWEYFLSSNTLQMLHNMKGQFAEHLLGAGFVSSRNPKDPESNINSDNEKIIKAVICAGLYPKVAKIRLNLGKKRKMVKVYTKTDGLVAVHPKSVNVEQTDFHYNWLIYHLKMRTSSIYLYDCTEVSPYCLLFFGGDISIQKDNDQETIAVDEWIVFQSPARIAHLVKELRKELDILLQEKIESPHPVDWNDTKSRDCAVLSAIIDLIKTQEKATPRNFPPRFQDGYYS
# Assay: as above
row,Binder,binding signal
1,B1,-0.0451 z-score
2,B2,0.293 z-score
3,B3,1.5 z-score
4,B4,-0.336 z-score
5,B5,-0.498 z-score
6,B6,-0.041 z-score
7,B7,-1.33 z-score
8,B8,0.294 z-score
9,B9,0.068 z-score
10,B10,1.96 z-score
11,B11,0.217 z-score
12,B12,-0.297 z-score
13,B13,-0.427 z-score
14,B14,0.11 z-score
15,B15,-0.815 z-score
16,B16,-0.882 z-score
17,B17,0.327 z-score
18,B18,0.2 z-score
19,B19,-0.25 z-score
20,B20,-0.641 z-score
21,B21,-0.158 z-score
22,B22,0.237 z-score
23,B23,-0.686 z-score
